Molecular target: CX3CR1 nucleosome (human core histones, wild type) (human) (UniProt P04908)
Assay: native gel or EMSA; 0.5 μM nucleosome mixed with purified protein at different concentrations, 30 min, room temperature, 20 mM HEPES pH 7.3, 150 mM NaCl, 0.5 mM TCEP; 4% or 5% acrylamide gel in 0.2 x TBE at 4 °C; apparent Kd from a fit to the Hill equation

Substance: PU.1 ETS Q218H (^ETS-Q218HPU.1) (from UniProt P17433 165-272) (domain or fragment)
- fold reduction of the binding affinity against ^ETSPU.1 on the nucleosome with wild-type H2A: 2 fold
